Key:
[1] = molecular target: T1, Metabotropic glutamate receptor 5 (Rattus norvegicus, UniProt P31424); assay: Inverse agonist activity at rat mGluR5 expressed in HEK293A cells coexpressing Gqalpha assessed as inhibition of basal D-myo-inositol 1 production by ELISA
[2] = molecular target: T1, Metabotropic glutamate receptor 5; assay: Displacement of [3H]MPEP from mGluR5 in Sprague-Dawley rat brain membrane after 60 mins by liquid scintillation counting; format: cell membranes
Method in brief: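 Competitive binding against [³H]MPEP in membranes prepared from rat brain. Ki was derived from competitive inhibition of radioligand binding.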

The chains behind the UniProt entries cited, without tags or fusion partners.
UniProt P31424, whole entry: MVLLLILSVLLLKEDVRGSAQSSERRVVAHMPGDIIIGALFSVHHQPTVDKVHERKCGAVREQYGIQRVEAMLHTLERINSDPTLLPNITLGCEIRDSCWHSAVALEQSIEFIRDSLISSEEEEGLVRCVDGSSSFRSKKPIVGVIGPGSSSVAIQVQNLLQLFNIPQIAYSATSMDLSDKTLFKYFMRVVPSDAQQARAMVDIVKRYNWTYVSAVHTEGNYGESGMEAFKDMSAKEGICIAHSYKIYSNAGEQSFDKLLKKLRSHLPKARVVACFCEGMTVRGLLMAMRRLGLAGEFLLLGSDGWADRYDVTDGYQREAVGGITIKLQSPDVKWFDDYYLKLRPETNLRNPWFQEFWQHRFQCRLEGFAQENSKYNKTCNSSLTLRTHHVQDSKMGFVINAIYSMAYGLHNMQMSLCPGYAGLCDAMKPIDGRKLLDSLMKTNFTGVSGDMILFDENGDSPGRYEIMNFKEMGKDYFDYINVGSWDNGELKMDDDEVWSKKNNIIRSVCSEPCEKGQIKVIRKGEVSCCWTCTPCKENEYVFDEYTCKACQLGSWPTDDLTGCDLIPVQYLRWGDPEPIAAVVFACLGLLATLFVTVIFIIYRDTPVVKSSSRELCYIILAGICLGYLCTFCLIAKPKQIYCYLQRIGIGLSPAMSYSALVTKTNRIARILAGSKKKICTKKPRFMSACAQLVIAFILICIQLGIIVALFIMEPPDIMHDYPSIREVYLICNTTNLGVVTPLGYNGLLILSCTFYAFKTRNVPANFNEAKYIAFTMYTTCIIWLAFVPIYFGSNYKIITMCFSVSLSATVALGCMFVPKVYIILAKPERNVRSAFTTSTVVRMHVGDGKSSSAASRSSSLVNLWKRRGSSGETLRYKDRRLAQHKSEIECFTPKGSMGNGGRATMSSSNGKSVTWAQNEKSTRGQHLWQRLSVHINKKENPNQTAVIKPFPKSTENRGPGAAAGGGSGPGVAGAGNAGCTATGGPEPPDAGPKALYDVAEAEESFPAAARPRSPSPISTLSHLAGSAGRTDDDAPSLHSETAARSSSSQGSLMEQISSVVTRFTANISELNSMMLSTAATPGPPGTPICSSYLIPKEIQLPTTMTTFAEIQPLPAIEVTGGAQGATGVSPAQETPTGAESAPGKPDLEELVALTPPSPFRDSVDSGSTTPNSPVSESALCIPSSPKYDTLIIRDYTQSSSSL

IC50 [1] [nM] | Ki [2] [nM] | Compound
31 | 16.3 | Cc1cccc(C#Cc2ccccc2)n1
110 | 42 | Cc1nc(C#Cc2cccnc2)cs1

— ChEMBL document CHEMBL2086345, “Metabotropic glutamate receptor 5 negative allosteric modulators as novel tools for in vivo investigation” (ACS Med Chem Lett, 2012)
